# Results reported in PubChem BioAssay AID602410 (Johns Hopkins Ion Channel Center, 2012).
# By UniProt entry, the sequences of proteins in these tests, tags left out.
# UniProt O14649, whole entry: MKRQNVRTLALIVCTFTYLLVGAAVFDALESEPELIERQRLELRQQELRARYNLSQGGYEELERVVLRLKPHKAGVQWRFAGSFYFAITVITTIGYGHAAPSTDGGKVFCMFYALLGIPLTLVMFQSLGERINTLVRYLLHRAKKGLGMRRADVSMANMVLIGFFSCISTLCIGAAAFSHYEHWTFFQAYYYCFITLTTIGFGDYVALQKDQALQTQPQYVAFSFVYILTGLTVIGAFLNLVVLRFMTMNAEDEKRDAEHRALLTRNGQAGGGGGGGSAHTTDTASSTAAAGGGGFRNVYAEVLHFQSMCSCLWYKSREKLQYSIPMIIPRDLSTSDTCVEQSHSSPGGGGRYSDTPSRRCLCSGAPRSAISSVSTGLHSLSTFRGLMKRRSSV
# The list shows a part of the results, in another mix than the full data. Calls of active or inactive are those of the source.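 Rule for the calls: active = B-score under library mean minus 4 SD, starting fluorescence ratio at most library mean plus 5 SD; inactive = the rest.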
# Molecular target: Potassium channel subfamily K member 3 (Homo sapiens) (UniProt O14649)
# Assay: human KCNK3 channel inhibitors, primary screen, CHO cells, FluxOR thallium flux, B-score (AID 602410)
# Conditions: FluxOR fluorescence, at 10 µM
row,SMILES,outcome
1,CP(=O)(Nc1ccc(Cl)cc1)Oc1ccc(F)cc1 (stereo unspecified),inactive
2,CCN(/C(=N/P(=O)(N1CCOCC1)N1CCOCC1)N1CCOCC1)c1ccc(OC)cc1,inactive
3,C[N+]1=C2C=CC=CC=C2SC12C([N+](=O)[O-])=CC([N+](=O)[O-])=C[C-]2[N+](=O)[O-] (stereo unspecified),inactive
4,Nc1ccc([As](=O)(O)c2ccc(N)cc2)cc1,inactive
5,CC(C)(C)c1ccc(OP(C)(=O)O)cc1,inactive
6,COc1ccccc1OP(C)(=O)Nc1ccccc1Br (stereo unspecified),inactive
7,O=[N+]([O-])c1cc([N+](=O)[O-])c(CCNc2ccccc2)c([N+](=O)[O-])c1,inactive
8,CCc1nc2c(n1)c1c(non1O)c1c2no[n+]1[O-],inactive
9,CCc1ccc(OP(C)(=O)Nc2cccnc2)cc1 (stereo unspecified),inactive
10,Cc1ccc(NP(=O)(Oc2ccccc2)Oc2ccccc2)nc1,inactive
11,CP(=O)(Oc1ccccc1)N1CCOC1=O (stereo unspecified),inactive
12,O=C(OCCCN1CCCC1)C(O)(c1ccccc1)C1CCCCC1 (stereo unspecified),inactive
13,COc1ccccc1OP(C)(=O)Nc1c(C)n(C)n(-c2ccccc2)c1=O (stereo unspecified),inactive
14,CC(=O)N1C2C3N(C(C)=O)C1C1N(C(C)=O)C(C(N1C(C)=O)N3C(C)=O)N2C(C)=O,inactive
15,O=[N+]([O-])c1cccc2n[nH]nc12,inactive
16,COc1ccc(C2=NCC(CBr)S2)cc1 (stereo unspecified),inactive
17,COc1ccc(OP(C)(=O)Nc2ccc(Br)cc2)cc1 (stereo unspecified),inactive
18,CCN(CC)CC(O)COC(=O)C(O)(c1ccccc1)C1CCCCC1 (stereo unspecified),inactive
19,CCC(C)N(CC(C)C)C(=S)SC(NC(C)=O)C(Cl)(Cl)Cl (stereo unspecified),inactive
20,CP(=O)(Nc1ccccn1)Oc1ccc(Cl)cc1 (stereo unspecified),inactive
21,CCOP(C)(=S)SCC(=O)NC(C)C(=O)O (stereo unspecified),inactive
22,O=C(OC1CN2CCC1CC2)c1cccc([N+](=O)[O-])c1 (stereo unspecified),inactive
23,O=[N+]([O-])c1cc([N+](=O)[O-])c(O)c([N+](=O)[O-])c1.c1ccc(Oc2ccncc2)cc1,inactive
24,CCOC(=O)c1ccc(NC(=O)C(C)(CCl)SC)cc1 (stereo unspecified),inactive

row,SMILES,outcome
1,CCOC(=O)c1ccc(NP(C)(=O)Oc2ccc(OC)cc2)cc1 (stereo unspecified),inactive
2,Cc1cc(C)cc(OP(C)(=O)Nc2ccc(SC(F)(F)F)cc2)c1 (stereo unspecified),inactive
3,O=C(Nc1ccncc1[N+](=O)[O-])c1ccc([N+](=O)[O-])cc1[N+](=O)[O-],inactive
4,CCc1ccc(OP(C)(=O)N2CCN(c3ccc([N+](=O)[O-])cc3)CC2)cc1 (stereo unspecified),inactive
5,CP(=O)(NC(=O)Nc1ccccc1)Oc1ccccc1 (stereo unspecified),inactive
6,O=C(COc1ccccc1)OC1CN2CCC1CC2 (stereo unspecified),inactive
7,CP(=O)(Oc1ccccc1)OC(c1ccccc1)C(F)(F)F (stereo unspecified),inactive
8,CP(=O)(Nc1ccc(SC(F)(F)F)cc1)Oc1ccc(Cl)cc1 (stereo unspecified),inactive
9,Cc1cccc(C)c1OP(C)(=O)Nc1ccc(SC(F)(F)F)cc1 (stereo unspecified),inactive
10,COP1(=S)c2c(C)nn(CCC#N)c2N=C(c2ccc(F)cc2)N1C (stereo unspecified),inactive
11,COc1ccccc1OP(C)(=O)Nc1ccccc1 (stereo unspecified),inactive
12,Cc1cc(SC(NC=O)C(Cl)(Cl)Cl)ncn1 (stereo unspecified),inactive
13,O=P(Nc1ccccn1)(c1cccc2ccccc12)c1cccc2ccccc12,inactive
14,O=[N+]([O-])c1ccc(Nc2ccc(Oc3ccc([N+](=O)[O-])cc3[N+](=O)[O-])cc2)c([N+](=O)[O-])c1,inactive
15,CP(=O)(Nc1ccccc1Br)Oc1ccccc1 (stereo unspecified),inactive
16,CP(=S)(Nn1cnnc1)Oc1ccccc1 (stereo unspecified),inactive
17,CCOC(=O)Nc1cccc([As](=O)(O)O)c1,inactive
18,Cc1cc(SC(NC(=O)c2ccccc2)C(Cl)(Cl)Cl)nc(C(C)C)n1 (stereo unspecified),inactive
19,CCCCOc1ccc(C(=O)NCC2(N3CCCCC3)CCCCC2)cc1OC,inactive
20,CCOC(=O)Nc1ccc([As](=O)(O)O)c(O)c1,inactive
21,CC1CCNP(=O)(N(CCCl)CCCl)O1 (stereo unspecified),inactive
22,O=[N+]([O-])c1cc([N+](=O)[O-])c(-c2ccn[nH]2)s1,inactive
23,COc1ccc(OP(C)(=O)Nc2cccc(F)c2)cc1 (stereo unspecified),inactive
24,O=C(OC1CN2CCC1CC2)c1cccc2[nH]cnc12 (stereo unspecified),inactive

row,SMILES,outcome
1,CCN(CC)C(=S)SC(NC=O)C(Cl)(Cl)Cl (stereo unspecified),inactive
2,CC(C)NC(=O)NP(=O)(Oc1ccccc1)Oc1ccccc1,inactive
3,COc1ccccc1OP(C)(=O)Nc1cc(Cl)ccc1C (stereo unspecified),inactive
4,Cc1cc(C)cc(OP(C)(N)=O)c1 (stereo unspecified),inactive
5,ClCCSc1nnc(-c2cccnc2)o1,inactive
6,CCOC(=O)c1ccc(NP(C)(=O)Oc2ccccc2)cc1 (stereo unspecified),inactive
7,CC(C)c1ccc(OP(=O)(Nc2ccccn2)Oc2ccccc2F)cc1 (stereo unspecified),inactive
8,Cc1ccc(NP(C)(=O)Oc2ccccc2)c(C)c1 (stereo unspecified),inactive
9,COC(=O)C1(C)COP(=O)(N2CCCCCC2)OC1 (stereo unspecified),inactive
10,COc1ccccc1OP(C)(=O)Nc1ccc(C)cc1 (stereo unspecified),inactive
11,Cc1cccc(C)c1OP(C)(N)=O (stereo unspecified),inactive
12,CC(C)(C)c1ccc(OP(C)(=O)Nc2ccc(SC(F)(F)F)cc2)cc1 (stereo unspecified),inactive
13,Cc1ccc(OP(=O)(Nc2ccc([N+](=O)[O-])cn2)Oc2ccc(C)cc2)cc1,inactive
14,Cc1ccc2nc3c(c(C)c2c1)CC(C(Cl)Cl)S3 (stereo unspecified),inactive
15,O=[N+]([O-])c1ccc2c(c1)C=Nc1ccccc1O2,inactive
16,O=[N+]([O-])c1cc([N+](=O)[O-])c(Nc2cccnc2)c([N+](=O)[O-])c1,inactive
17,COc1cc(C(=O)NCC2(N3CCOCC3)CCCCC2)ccc1OCC(C)C,inactive
18,O=[N+]([O-])c1ccc(-c2cc([N+](=O)[O-])c(O)c([N+](=O)[O-])c2)cc1,inactive
19,O=[As](O)(c1ccc(O)cc1)c1ccccc1O,inactive
20,C[As](=O)(O)c1cccc(C(=O)O)c1,inactive
21,O=[N+]([O-])c1cc(Oc2ccc([N+](=O)[O-])cc2C(F)(F)F)cc([N+](=O)[O-])c1,inactive
22,COc1ccc(N/C(=N/P(=O)(N2CCOCC2)N2CCOCC2)N2CCOCC2)cc1,inactive
23,O=P1(N(CCCl)CCCl)OCCCN1CCCl (stereo unspecified),inactive
24,O=P1(N(CCCl)CCCl)Nc2ccccc2N1,inactive

row,SMILES,outcome
1,COc1cc(I)ccc1[As](=O)(O)O,inactive
2,COc1ccc2nc(NP(=O)(c3ccccc3)c3ccccc3)sc2c1,inactive
3,Cc1c2c(nc3ccccc13)SC(C(Cl)Cl)C2 (stereo unspecified),inactive
4,CCN(CC)CCCOC(=O)C(O)(c1ccccc1)c1ccccc1,inactive
5,Cc1cc(=O)[nH]c(N[N+](=O)[O-])n1,inactive
6,O=C(OC1CN2CCC1CC2)C12CC3CC(CC(C3)C1)C2 (stereo unspecified),inactive
7,CCOP(=O)(Nc1cccc2ccccc12)OCC,inactive
8,Nc1cccc2c([As](=O)(O)O)cccc12,inactive
9,Cc1ccc(NCCc2c([N+](=O)[O-])cc([N+](=O)[O-])cc2[N+](=O)[O-])cc1,inactive
10,CP(=O)(Nc1cccc(Br)c1)Oc1ccccc1 (stereo unspecified),inactive
11,Cc1cc(C)cc(OP(C)(=O)Nc2ccccn2)c1 (stereo unspecified),inactive
12,CCCOP(=S)(Nc1nc(N)cc(=O)[nH]1)OCCC,inactive
13,Cc1ccc(C)c(NP(C)(=O)Oc2ccccc2)c1 (stereo unspecified),inactive
14,Cc1cc(C)cc(OP(C)(=O)Nc2ccc(C)cc2C)c1 (stereo unspecified),inactive
15,O=[As](O)(c1cccc(O)c1)c1cccc(O)c1,inactive
16,Cc1cccc(OCC(=O)OC2CN3CCC2CC3)c1 (stereo unspecified),inactive
17,CCOC(=O)c1ccc(NP(C)(=O)Oc2cc(C)cc(C)c2)cc1 (stereo unspecified),inactive
18,O=C(OC1CN2CCC1CC2)c1ccc(Cl)cc1 (stereo unspecified),inactive
19,CS(=O)(=O)c1ccc(Cl)c(NC(=O)COC(=O)C(O)(c2ccccc2)c2ccccc2)c1,inactive
20,COc1ccccc1OP(C)(=O)Nc1cccc(Br)c1 (stereo unspecified),inactive
21,COc1cc(C(=O)NCC2(N3CCOCC3)CCCCC2)cc(Cl)c1OC(C)C,inactive
22,O=[As](O)(O)c1cccnc1,inactive
23,CN(C(=O)Cc1ccccc1)[C@@H]1CC[C@]2(CCCO2)C[C@H]1N1CCCC1,inactive
24,CCOP1(=S)c2c(C)nn(CCC#N)c2N=C(c2ccc(F)cc2)N1C (stereo unspecified),inactive

row,SMILES,outcome
1,N#CCCN(C(=O)COC(=O)C(O)(c1ccccc1)c1ccccc1)c1ccc(F)cc1,inactive
2,CN(C(=O)Cc1ccc(Cl)c(Cl)c1)[C@H]1CC[C@@]2(CCCO2)C[C@@H]1N1CCCC1,inactive
3,CC1=NCCc2c1[nH]c1ccccc21.O=[N+]([O-])c1cc([N+](=O)[O-])c(O)c([N+](=O)[O-])c1,inactive
4,CN(C)C(=O)c1cc([N+](=O)[O-])cc2c1-c1c(cc([N+](=O)[O-])cc1[N+](=O)[O-])C2=O,inactive
5,O=[N+]([O-])c1ccc2c(c1)nnn2O,inactive
6,NC(=O)Nc1ccc([As](=O)(O)O)cc1,inactive
7,O=C(O)COc1ccc([As](=O)(O)O)cc1[N+](=O)[O-],inactive
8,Nc1ccccc1[As](=O)(O)c1ccccc1,inactive
9,O=P(Nc1nccs1)(c1ccccc1)c1nc2ccccc2s1 (stereo unspecified),inactive
10,O=P(Nc1nccs1)(Oc1ccccc1)Oc1ccccc1,inactive
11,O=C(O)c1cccc(Nc2c([N+](=O)[O-])cc([N+](=O)[O-])cc2[N+](=O)[O-])c1,inactive
12,CCOP1(=S)c2c(C)nn(CCC#N)c2N=C(c2ccccc2F)N1C (stereo unspecified),inactive
13,CS(=O)(=O)c1cc([N+](=O)[O-])c2no[n+]([O-])c2c1,inactive
14,CP(=O)(Nc1ccc(SC(F)(F)F)cc1)Oc1ccccc1 (stereo unspecified),inactive
15,Nc1cccc([As](=O)(O)c2ccccc2)c1,inactive
16,CCCOc1ccc(NP(C)(=O)Oc2ccc(Cl)cc2)cc1 (stereo unspecified),inactive
17,NS(=O)(=O)c1cccc(NC(=O)COC(=O)C(O)(c2ccccc2)c2ccccc2)c1,inactive
18,O=P1(Nc2ccc(Br)cn2)COc2ccccc2OC1,inactive
19,O=[As](O)(c1cccs1)c1cccs1,inactive
20,Cc1ccc(OCC(=O)OC2CN3CCC2CC3)cc1 (stereo unspecified),inactive
